This note sets out measurements from patent US20260092099A1 (SPIN THERAPEUTICS, published 2026).

The target of the assay is T1, human neutrophil elastase (human, UniProt P08246 30-247, limits assumed).
T1 sequence (looked up): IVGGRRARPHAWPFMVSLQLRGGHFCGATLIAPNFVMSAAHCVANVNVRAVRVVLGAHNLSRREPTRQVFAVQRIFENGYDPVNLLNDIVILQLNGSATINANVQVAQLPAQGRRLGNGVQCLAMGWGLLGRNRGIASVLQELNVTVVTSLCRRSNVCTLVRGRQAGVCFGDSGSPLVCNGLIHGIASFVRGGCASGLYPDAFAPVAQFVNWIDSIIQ
Briefly: cell-based or functional assay.

B1: PP12288-J1350 AAT (wild type AAT-linker-albumin fusion) (other)
chain: EDPQGDAAQKTDTSHHDQDHPTFNKITPNLAEFAFSLYRQLAHQSNSTNIFFSPVSIATAFAMLSLGTKADTHDEILEGLNFNLTEIPEAQIHEGFQELLRTLNQPDSQLQLTTGNGLFLSEGLKLVDKFLEDVKKLYHSEAFTVNFGDTEEAKKQINDYVEKGTQGKIVDLVKELDRDTVFALVNYIFFKGKWERPFEVKDTEEEDFHVDQVTTVKVPMMKRLGMFNIQHCKKLSSWVLLMKYLGNATAIFFLPDEGKLQHLENELTHDIITKFLENEDRRSASLHLPKLSITGTYDLKSVLGQLGITKVFSNGADLSGVTEEAPLKLSKAVHKAVLTIDEKGTEAAGAMFLEAIPMSIPPEVKFNKPFVFLMIEQNTKSPLFMGKVVNPTQKGGSGGSGGSGGSGG[skipping about 600 residues]
With B1, the “IC50 (nM), neutrophil elastase inhibitory assay” value amounted to 34.6 nM.

B2: PP12290-J1352 M351V, M358V (mutant AAT-linker-albumin fusion) (other)
chain: EDPQGDAAQKTDTSHHDQDHPTFNKITPNLAEFAFSLYRQLAHQSNSTNIFFSPVSIATAFAMLSLGTKADTHDEILEGLNFNLTEIPEAQIHEGFQELLRTLNQPDSQLQLTTGNGLFLSEGLKLVDKFLEDVKKLYHSEAFTVNFGDTEEAKKQINDYVEKGTQGKIVDLVKELDRDTVFALVNYIFFKGKWERPFEVKDTEEEDFHVDQVTTVKVPMMKRLGMFNIQHCKKLSSWVLLMKYLGNATAIFFLPDEGKLQHLENELTHDIITKFLENEDRRSASLHLPKLSITGTYDLKSVLGQLGITKVFSNGADLSGVTEEAPLKLSKAVHKAVLTIDEKGTEAAGAVFLEAIPVSIPPEVKFNKPFVFLMIEQNTKSPLFMGKVVNPTQKGGSGGSGGSGGSGG[skipping about 600 residues]
For the molecule B2, the “IC50 (nM), neutrophil elastase inhibitory assay” value amounted to 33.7 nM.

B3: PP12289-J1351 C232S (mutant AAT-linker-albumin fusion) (other)
chain: EDPQGDAAQKTDTSHHDQDHPTFNKITPNLAEFAFSLYRQLAHQSNSTNIFFSPVSIATAFAMLSLGTKADTHDEILEGLNFNLTEIPEAQIHEGFQELLRTLNQPDSQLQLTTGNGLFLSEGLKLVDKFLEDVKKLYHSEAFTVNFGDTEEAKKQINDYVEKGTQGKIVDLVKELDRDTVFALVNYIFFKGKWERPFEVKDTEEEDFHVDQVTTVKVPMMKRLGMFNIQHSKKLSSWVLLMKYLGNATAIFFLPDEGKLQHLENELTHDIITKFLENEDRRSASLHLPKLSITGTYDLKSVLGQLGITKVFSNGADLSGVTEEAPLKLSKAVHKAVLTIDEKGTEAAGAMFLEAIPMSIPPEVKFNKPFVFLMIEQNTKSPLFMGKVVNPTQKGGSGGSGGSGGSGG[skipping about 600 residues]
Turning to B3, the “IC50 (nM), neutrophil elastase inhibitory assay” value turned out to be 45.3 nM.

B4: PP12291-J1353 M351V, M358L (mutant AAT-linker-albumin fusion) (other)
chain: EDPQGDAAQKTDTSHHDQDHPTFNKITPNLAEFAFSLYRQLAHQSNSTNIFFSPVSIATAFAMLSLGTKADTHDEILEGLNFNLTEIPEAQIHEGFQELLRTLNQPDSQLQLTTGNGLFLSEGLKLVDKFLEDVKKLYHSEAFTVNFGDTEEAKKQINDYVEKGTQGKIVDLVKELDRDTVFALVNYIFFKGKWERPFEVKDTEEEDFHVDQVTTVKVPMMKRLGMFNIQHCKKLSSWVLLMKYLGNATAIFFLPDEGKLQHLENELTHDIITKFLENEDRRSASLHLPKLSITGTYDLKSVLGQLGITKVFSNGADLSGVTEEAPLKLSKAVHKAVLTIDEKGTEAAGAVFLEAIPLSIPPEVKFNKPFVFLMIEQNTKSPLFMGKVVNPTQKGGSGGSGGSGGSGG[skipping about 600 residues]
As for B4, the “IC50 (nM), neutrophil elastase inhibitory assay” value stood at 31.1 nM.
